Binding of CDR-mutated scFvs to a peptide of the spike HR2 region

Source: Li et al. 2023 (doi:10.1038/s41467-023-39022-2), MIT Lincoln Laboratory and A-Alpha Bio; data file from the FLAb repository.

Antigen: PDVDLGDISGINAS, a 14-residue peptide of the SARS-CoV-2 spike HR2 region.

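The starting antibody came from a phage panning campaign against this peptide. Designed CDR sequences, proposed from the first random library and measured here. Group labels follow the data file (Ctrl: baseline library sampled from a position-specific scoring matrix, with some repeated check sequences; En: ensemble of fine-tuned language models; GP: Gaussian process model; HC: hill climbing; Gen: genetic algorithm; Gibbs: Gibbs sampling; a sequence that several methods proposed may carry one label only). AlphaSeq pools MATa yeast showing the antibodies with MATalpha yeast showing the peptide. The frequency of each diploid, read from paired DNA barcodes, reflects how well the two displayed proteins bind. Read counts were normalised to the haploid input and turned into Kd by a linear fit to BCL2-family pairs of known affinity, for each replicate. The assay was run in six technical replicates.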

Ab-14 is the parent antibody, in scFv form: VH, then three GGGGS repeats, then VL. The heavy chain is unchanged in all variants.
VH: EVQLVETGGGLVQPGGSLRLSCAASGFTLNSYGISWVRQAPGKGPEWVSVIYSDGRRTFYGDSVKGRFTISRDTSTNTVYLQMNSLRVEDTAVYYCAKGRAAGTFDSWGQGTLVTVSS
VL: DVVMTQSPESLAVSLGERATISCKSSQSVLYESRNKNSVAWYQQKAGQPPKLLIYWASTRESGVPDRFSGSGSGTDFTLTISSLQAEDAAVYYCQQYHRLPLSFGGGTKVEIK

The parent's light chain CDRs are KSSQSVLYESRNKNSVA, WASTRES, QQYHRLPLS; each variant's own CDRs replace them letter for letter. Values are log10 of the apparent Kd in nM; lower means stronger binding. "n.d." marks a missing value. The strain was present, yet no cells mated with the target were sequenced in that replicate, which points to weak or no binding. The authors' rule: three or more of the six replicates give a measured affinity, fewer mean a poor binder. Values of this round are not directly comparable with the first-round values of the same sequences. As a blank, each scFv also met three strains without target: over all light chain designs, 4% of these pairings were detected, typically at 2.64 and seldom below 1.59.

CDR-L1	CDR-L2	CDR-L3	group	log10 Kd, replicates
KLSEQAEYESRNKNSVA	QASTREM	QQYHRLPLS	GP_Gibbs	-0.74 / -0.40 / -0.87 / -0.39 / -0.54 / -0.49
KSSQSVLYESRNKNSVA	WASTRES	QQYHRLMLS	Ctrl	n.d. / n.d. / n.d. / n.d. / n.d. / n.d.
MVSQLMLWGLHAKNSIA	EAQTRCN	QQYDRLPLF	En_Gen	n.d. / 2.28 / 2.47 / n.d. / n.d. / 1.97
KLSQLVLYESRNKNSVA	NASTRLS	QQYHRLPLS	GP_Gen	-0.01 / 0.26 / -0.01 / 0.11 / 0.10 / 0.00
VLPDHPLMKESQQHSIA	NEDKRME	QQYSRLPLM	En_Gibbs	0.42 / 0.57 / 0.49 / 0.38 / 0.50 / 0.72
KVSQSVLYEMRNKNSVA	NASTRES	QQYHRLPLS	GP_Gen	0.31 / 0.03 / 0.00 / -0.11 / -0.01 / 0.30
KLSMVTGHMSMSRNNVA	EMETREN	QQYDRLPLS	En_Gen	1.01 / 0.85 / 0.37 / 0.51 / 0.51 / 0.45
KFANQLVYWNQGQNAIA	DVTTKSA	QQYLRLPLM	En_Gibbs	0.56 / 0.50 / 0.42 / 0.55 / 0.63 / 0.95
HVSQTLTDEMYREYNVA	ETNHVEE	QDYFRLPLI	En_Gibbs	n.d. / n.d. / n.d. / n.d. / n.d. / n.d.
QSSQSVLYESRNKNSVA	EASTRES	QQYHRLPLS	Ctrl	0.45 / 0.99 / 1.02 / 0.53 / 0.71 / 1.17
KMSQSGLYESRNKNSVA	NASTRES	QQYHRLPLS	GP_Gen	0.01 / -0.08 / -0.10 / -0.02 / -0.48 / 0.22
RFQQWSLESNNTEKSIA	SASHREQ	QQYARLPLF	En_Gibbs	0.81 / 0.91 / 0.63 / 0.73 / 0.81 / 0.79
TISGSVMSESRLKNSVA	QTTTRES	QQYDRLPLS	En_HC	n.d. / 1.81 / 1.09 / 0.49 / 1.01 / 1.58
KLGQMTGIESHAKNSLA	DANRRES	QQYHRLPLS	En_HC	0.09 / 0.13 / -0.20 / -0.03 / 0.03 / 0.19
KVMQSYLYESRNKNSVA	NASTRES	QQYHRLPLS	GP_Gen	1.13 / 0.74 / 0.10 / 1.53 / 0.49 / 0.42
HSSQSELYESRNKNSVA	NASQRES	QQYHRLPLS	GP_HC	0.00 / -0.26 / -0.21 / -0.14 / -0.13 / 0.10
KMSQSWLYESRNKNSVA	NASTRES	QQYHRLPLS	GP_Gen	0.39 / 0.04 / 0.23 / 0.05 / 0.02 / 0.23
NISESMYFQSVMKNNIA	EMSTRER	QHYHRLPLS	En_HC	n.d. / n.d. / n.d. / 1.98 / n.d. / n.d.
KISQSILFMSGAKNAIA	QMEMREE	QQYHRLPLS	En_HC	0.98 / 0.98 / 1.16 / 0.55 / 0.54 / 1.00
KLSQSYLYESRNKNSVA	DASTRES	QQYHRLPLS	GP_Gen	n.d. / n.d. / n.d. / 1.19 / 1.80 / 2.41
KVAQGIFDGKRNSHSIA	EVSELCT	QQYSRLPLE	En_Gibbs	1.18 / 1.41 / 1.18 / 0.77 / 0.77 / 1.29
KSSQSQLYESRNKNSVA	WASTRES	QNYHRPPLS	Ctrl	n.d. / 0.58 / 1.37 / 1.19 / 2.56 / n.d.
KLSQSCLYESRNKNSVA	NASYRES	QQYHRLPLS	GP_Gen	0.13 / -0.03 / 0.09 / -0.09 / -0.07 / 0.12
QLGAVTDMTSKNKNSVA	EQSTREN	QQYHRLPLS	En_HC	0.07 / 0.17 / -0.20 / -0.20 / 0.04 / 0.48
WLSMSVMLESRNVNSVA	SASTREL	QQYHRLPLS	GP_Gibbs	n.d. / n.d. / n.d. / n.d. / n.d. / n.d.
FMEMDFDGNSVNHNSIA	SEEVVTR	QHYARLPLS	En_Gibbs	n.d. / n.d. / n.d. / n.d. / n.d. / n.d.

Second part, the sequence after the result:

log10 Kd, replicates	CDR-L1	CDR-L2	CDR-L3	group
0.53 / 0.60 / 0.65 / 0.25 / 0.65 / 0.55	TLADVTRQESNKKSNIA	DMSNRAA	QQYHRLPIS	En_HC
-0.10 / -0.24 / 0.31 / -0.29 / -0.15 / -0.04	KVSPSMWYESRNKNNVA	HASTRES	QQYHRLPLQ	GP_Gibbs
-0.29 / -0.43 / -0.49 / -0.52 / -0.62 / -0.23	KLPQSVLYESRNKNNVA	NASTRES	QQYHRLPLS	GP_Gen
0.19 / -0.09 / -0.02 / 0.06 / 0.01 / 0.23	KFSQSDLYEDGNKNSVA	NASTRCS	QQYHRLPLS	GP_Gibbs
0.21 / 0.46 / 0.25 / -0.01 / 0.24 / 0.00	KVSQSWLYESRNKNSVA	GASWRES	QQYHRLPLS	GP_HC
0.17 / 0.02 / 0.11 / -0.08 / 0.18 / 0.14	HLSMVVLYESRNKNSVA	NASTRES	QQYHRLPLS	GP_HC
0.85 / 1.24 / 1.29 / 0.80 / 0.55 / 1.16	TISQLYNMGSFAINSVA	QASERNE	QQYDRLPLI	En_Gen
0.96 / 1.30 / 0.78 / 1.14 / 1.09 / 1.18	KSSQSVLYCSRNGNHVA	AASTRES	QQYHRLPLS	Ctrl
1.07 / 1.37 / 0.94 / 1.53 / 1.74 / 1.45	MISESVMYESRNRNSVA	DHSTRED	QCYDRLPLS	En_HC
n.d. / n.d. / n.d. / 2.65 / 1.81 / 3.57	MISQLYNMGQFAINSVA	QAEIRNA	QQYDRLPLA	En_Gen
1.96 / 2.07 / 1.64 / 1.83 / 2.80 / 2.77	KSSQSVLYESRNKSSVA	WASTRES	QQYHRLPLS	Ctrl
0.90 / 0.84 / 1.28 / 0.35 / 0.81 / 0.83	KLPQSYLYESRNKNSVA	QASTRES	QQYHRLPLS	GP_Gen
0.86 / 0.75 / 0.62 / 0.64 / 0.70 / 0.91	TLTQVTMVESYVKNSVA	QASTRLE	QDYHRLPLS	En_HC
0.00 / -0.26 / -0.06 / -0.25 / -0.06 / -0.02	KSSQSVLYESPNKNSVA	GASTRES	QQYHRLPLS	Ctrl
-0.52 / -0.59 / -0.44 / -0.80 / -0.66 / -0.45	KLSQSVLYESRLKNSVA	NASTRES	QQYHRLPLS	GP_Gen
n.d. / 1.71 / 1.40 / 2.30 / 2.20 / 2.21	HISQSVGMTSRNKNSVA	ENSTRES	QQYDRLPLS	En_HC
-0.05 / n.d. / 1.47 / 0.34 / 0.64 / 0.25	MISQVMNTLTRHGNNVA	DLQNRED	QQYFRLPLS	En_Gen
0.35 / 0.38 / 0.36 / 0.18 / 0.06 / 0.46	KLQQSVLYESRNKNSVA	HASTRCS	QQYHRLPLS	GP_Gen
-0.56 / -0.52 / -0.53 / -0.70 / -0.43 / -0.51	KARQSWLYESRNKNSVA	GASTRES	QQYHRLPLI	GP_HC
1.81 / 2.63 / 3.46 / 1.61 / 1.83 / 2.56	MFDQQTMTENDKNNSVA	EENHLYN	QQYAQLPLI	En_Gibbs
1.11 / 0.98 / 1.41 / 1.10 / 1.27 / 1.26	TISTSANYESTNKNSVA	ELTTRGS	QQYERLPLS	En_HC
0.57 / 1.01 / 0.59 / 1.68 / 1.01 / 0.60	KLEQSELYESRNKNSVA	NASQREQ	QQYHRLPLS	GP_Gen
-0.45 / -0.62 / -0.62 / -0.15 / -0.46 / -0.17	KSDQGNLYESRNKNSVA	GASTRES	QQYHRLPLS	GP_HC
n.d. / 3.59 / n.d. / n.d. / n.d. / n.d.	KVSIFMWTMDNANSHIA	NMAEERT	QQYQRLPLS	En_Gibbs
1.05 / n.d. / 2.68 / n.d. / 3.77 / n.d.	KSPQSVLYESRNKNSVA	WASTRES	DQYYRMPLS	Ctrl
n.d. / n.d. / 2.34 / n.d. / n.d. / n.d.	KIGATLNQLMHQKNNVA	DLVMREN	QQYFRLPLS	En_Gen